From EP4825842A1, “DIVALENT BET DECOMPOSITION AGENT AND TARGETING MOLECULE-DRUG COMPLEX” (dated 2026)

Assays:
SU-DHL-4 cells = assay: Test Example 1: in vitro cell survival inhibitory effect of compound using SU-DHL-4 cell line; settings: read-out: SU-DHL-4 IC50; 50% rate of inhibition of cell survival; 72 hours; Cell Counting Kit-8
Protocol: SU-DHL-4 cells (Code No. ACC 495, Deutsche Sammlung von Mikroorga nismen und Zellkulturen GmbH; DSMZ) were cultured in RPMI1640 medium (Code No. 11875-093, Thermo Fisher Scientific Inc.) supplemented with heat-inactivated fetal bovine serum (FBS: Code No. 10099-148, Thermo Fisher Scientific Inc.) in an amount that attained a final concentration of 10 vol% and a penicillin/streptomycin solution (PS: Code No. 15140-122, Thermo Fisher Scientific Inc.) in an amount that attained a final concentration of 1 vol% at 37°C using a CO2 incubator (95% air, 5% CO2). The cells were passaged at intervals of twice per week so as to maintain a cell density of 1 × 10 ^6 cells/mL or less in a volume of 20 to 40 mL.
The cultured SU-DHL-4 cells were seeded at 2000 cells/well to a transparent 384-well plate (Code No. 781182, Greiner bio-one). The cells thus seeded were precultured at 37°C for 18 to 25 hours in a CO2 incubator. Subsequently, a 1, 0.1, or 0.01 mmol/L solution of a test compound in DMSO was prepared, and nine serial dilutions were prepared at a dilution factor of √10 so as to attain 200 times the final concentration using the RPMI1640 medium containing FBS and PS, and added in a volume of 1/200 to each well. The final concentration of DMSO was set to 0.1 vol% for this preparation. The cells thus supplemented with the test compound were cultured at 37°C for 72 hours in a CO2 incubator. Subsequently, 0.020 mL of a solution of Cell Counting Kit-8 (Code No. CK04, Dojindo Laboratories) diluted 2-fold or 4-fold with phosphate-buffered saline (PBS) was added to each well. Color reaction was performed at 37°C for 2 to 3 hours in a CO2 incubator, followed by absorbance measurement at a wavelength of 450 nm using SpectraMax 340PC (Molecular Devices, LLC).

HIP-009 cells = assay: Test Example 2: in vitro cell survival inhibitory effect of compound using nerve cell (HIP-009 cell); settings: for Nerve selectivity: calculated from HIP-009 IC50 and SU-DHL-4 IC50; for IC50: read-out: HIP-009 IC50, 50% rate of inhibition of cell survival, differentiated nerve cells, 7 days, total area occupied by the cells; for Degree of improvement (vs. comparative compound): neural selectivity of each compound / neural selectivity of the comparative compound
Protocol: HIP-009 cells (Code No. 23002-009, Hippocampal Neural Stem Cells, Cosmo Bio Co., Ltd.) were cultured in Neural Stem Cell Growth Media (Code No. 21001-250, Cosmo Bio Co., Ltd.) at 37°C for 2 to 4 weeks using a CO2 incubator (95% air, 5% CO2) until confluency with half-volume media exchanges once or twice per week, then allowed to differentiate in Neuro Transition Media (Code No. 21003-250, Cosmo Bio Co., Ltd.), and seeded at 5000 to 10000 cells/0.04 mL/well to a 384-well plate (Code No. 781091, Greiner bio-one) using Neural Differentiation media (Code No. 210040250, Cosmo Bio Co., Ltd.). Neurites were elongated with half-volume media exchanges once or twice per week. Each medium was supplemented with supplements as described in the instruction and used after being allowed to pass through a 0.22 µm filter. The cells were used in evaluation 3 weeks or later after seeding to the 384-well plate by confirming the elongated neurites.
In order to detach the cells, Trypsin (Code No. 41004-100, Cosmo Bio Co., Ltd.) was added thereto, and the mixture was incubated at 37°C for 3 to 10 minutes using a CO2 incubator (95% air, 5% CO2). Cell detachment reaction was stopped by the addition of Trypsin Inhibitor (Code No. 41005-100, Cosmo Bio Co., Ltd.) in an equal amount.
The 384-well plate was subjected to the following operation before cell seeding. A poly(ethylenimine) solution (Code No. 03880-100ML, Sigma-Aldrich Co., LLC) was diluted with 1 × Borate Buffer (dilution of Pierce 20 × Borate Buffer (Code No. 28341, Thermo Fisher Scientific Inc.)) to prepare a 0.07% poly(ethylenimine) solution, 0.02 mL of which was added to each well and incubated at 37°C for 1 hour. Then, the plate was washed twice with 0.1 mL of PBS and once with 0.1 mL of Otsuka distilled water and left standing overnight for drying. 0.02 mL of Laminin from Engelbreth-Holm-Swarm murine sarcoma basement membrane (Code No. L2020-1MG, Sigma-Aldrich Co., LLC) diluted into 0.0033 mg/mL with PBS was added to each well and incubated at 37°C for 1 hour. Laminin was sucked out, then 0.1 mL of Otsuka distilled water was added to the plate until just before seeding, and the plate was left standing.
The cells of day 0 were photographed using Cell3iMager duos (SCREEN Holdings Co., Ltd.) before addition of a test compound, and the total area occupied by the cells was calculated. Nine serial dilutions of the test compound (10000 mmol/L solution in DMSO) were prepared at a dilution factor of √10 so as to attain 5 times the final concentration using the Neural Differentiation Media, and added in a volume of 1/5 to each well. The final concentration of DMSO was set to 0.1 vol% for this preparation. The cells thus supplemented with the test compound were cultured at 37°C for 7 days in a CO2 incubator (95% air, 5% CO2). The cells of day 7 were photographed using Cell3iMager duos, and the total area occupied by the cells was calculated. […] Rate of inhibition of cell survival(%) = 100−A/B × 100 [formula] • A: Total area of the cells of day 7 • B: Total area of the cells of day 0
The results were as shown in the column "HIP-009 IC50 (nmol/L)" in Table 33 below. The selectivity of each compound for nerve cells was calculated according to the following formula using the results thus obtained and the results of Test Example 1. [formula]
Degree of improvement (vs. the comparative compound) = Neural selectivity of each compound / Neural selectivity of the comparative compound

SMILES | IC50 (SU-DHL-4 cells) [nM] | Nerve selectivity (HIP-009 cells) | IC50 (HIP-009 cells) [nM] | Degree of improvement (vs. comparative compound) (HIP-009 cells)
CCC(=O)N1c2ccccc2[C@H](Nc2ccc(NC(=O)CNC(=O)Nc3ccc(OCCN4[C@H](C)CN(C(C)=O)C[C@@H]4C)cc3)cc2)C[C@@H]1C | 0.061 | 1700 | 100 | 
CCC(=O)N1c2ccccc2[C@H](Nc2ccc(NC(=O)CNC(=O)Nc3ccc(OCCN4CCN(C)C(=O)C4)cc3)cc2)C[C@@H]1C | 0.2 | 3000 | 600 | 23
CCC(=O)N1c2cc(F)ccc2[C@H](Nc2ccc(NC(=O)CNC(=O)Nc3ccc(OCCN4CCN(C)C(=O)[C@H]4C)cc3)cc2)C[C@@H]1C (relative stereo) | 0.023 | 6000 | 140 | 
CCC(=O)N1c2ccccc2[C@H](Nc2ccc(NC(=O)CNC(=O)Nc3ccc(OCCN4CCN(C(C)=O)C[C@H]4C)cc3)cc2)C[C@@H]1C | 0.072 | 7400 | 530 | 
CCC(=O)N1c2ccccc2[C@H](Nc2ccc(NC(=O)CNC(=O)Nc3ccc(OCCN4CCN(C(C)=O)[C@@H](C)C4)cc3)cc2)C[C@@H]1C | 0.026 | 10000 | 260 | 
CCC(=O)N1c2ccccc2[C@H](Nc2ccc(NC(=O)CNC(=O)Nc3ccc(OCCN4CCN(CC)C(=O)C4)cc3)cc2)C[C@@H]1C | 0.99 | 1600 | 1600 | 12
CCC(=O)N1c2ccccc2[C@H](Nc2ccc(NC(=O)CNC(=O)Nc3ccc(OCCN4CC(=O)N(C)C[C@@H]4C)cc3)cc2)C[C@@H]1C | 0.19 | 4900 | 900 | 38
CCC(=O)N1c2ccccc2[C@H](Nc2ccc(NC(=O)CNC(=O)Nc3ccc(OCCN4CCN(C(=O)C5CC5)CC4)cc3)cc2)C[C@@H]1C | 0.52 | 1500 | 760 | 12
CCC(=O)N1c2ccccc2[C@H](Nc2ccc(NC(=O)CNC(=O)Nc3ccc(OCCN4CCN(C)C(=O)[C@H]4C)cc3OC)cc2)C[C@@H]1C | 0.13 | 2000 | 270 | 
CCC(=O)N1c2ccccc2[C@H](Nc2ccc(NC(=O)CNC(=O)Nc3ccc(OCCN4CCN(C)C(=O)[C@H]4C)cc3)c(Cl)c2)C[C@@H]1C (relative stereo) | 0.11 | 550 | 60 | ④ 13
CCC(=O)N1c2ccccc2[C@H](Nc2ccc(NC(=O)CNC(=O)Nc3ccc(OCCc4oc(C)nc4C)cc3)cc2)C[C@@H]1C | 0.12 | 1600 | 190 | ④ 37
CCC(=O)N1c2ccccc2[C@H](Nc2ccc(NC(=O)CNC(=O)Nc3ccc(OCCN4C[C@@H]5C[C@H]4CN5C(C)=O)cc3)cc2)C[C@@H]1C | 1.5 | 930 | 1400 | 7.2
CCC(=O)N1c2ccccc2[C@H](Nc2ccc(NC(=O)CNC(=O)Nc3ccc(OCCc4cccc(C(=O)NC)c4)cc3)cc2)C[C@@H]1C | 0.042 | 1900 | 80 | ④ 44
CCC(=O)N1c2ccccc2[C@H](Nc2ccc(NC(=O)CNC(=O)Nc3ccc(OCCc4cncc(C)c4)cc3)cc2)C[C@@H]1C | 0.38 | 760 | 290 | 
CCC(=O)N1c2ccccc2[C@H](Nc2ccc(NC(=O)CNC(=O)Nc3ccc(OCCN4CCCN(C(C)=O)CC4)cc3)cc2)C[C@@H]1C | 0.27 | 2400 | 650 | 
CCC(=O)N1c2ccccc2[C@H](Nc2ccc(NC(=O)CNC(=O)Nc3ccc(OCCN4CCC(=O)N(C)CC4)cc3)cc2)C[C@@H]1C | 0.021 | 4500 | 96 | 35
